# Binding of CDR-mutated scFvs to a peptide of the spike HR2 region

Target peptide (SARS-CoV-2 spike, HR2 region): PDVDLGDISGINAS

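The starting antibody came from a phage panning campaign against this peptide. This is the validation round: designs drawn from the data on random variants, tested in the same kind of assay. Their group label is 14H_GP_Gen (GP: Gaussian process model; Gen: genetic algorithm; a sequence that several methods proposed may carry one label only). The assay is AlphaSeq: two haploid yeast populations carry antibody and antigen on their surface. The frequency of each diploid, read from paired DNA barcodes, reflects how well the two displayed proteins bind. Scores were corrected for input abundance and mapped to Kd with protein pairs of known affinity run in the same pool. Each pool was mated in six replicate cultures.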

Parent scFv Ab-14: VH joined to VL by a 15-residue (Gly4Ser)3 linker. Changes lie in the heavy chain CDRs alone.
VH: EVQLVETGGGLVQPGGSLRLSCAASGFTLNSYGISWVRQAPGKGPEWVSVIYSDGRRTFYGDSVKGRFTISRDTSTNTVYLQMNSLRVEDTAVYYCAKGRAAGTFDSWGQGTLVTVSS
VL: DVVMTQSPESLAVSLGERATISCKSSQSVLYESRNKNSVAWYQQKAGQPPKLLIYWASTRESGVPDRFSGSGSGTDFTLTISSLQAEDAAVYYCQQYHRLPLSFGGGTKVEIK

Variants are written as CDR1, CDR2 and CDR3 of the heavy chain (limits as in the source). Parent: GFTLNSYGIS, VIYSDGRRTFYGDSVK, GRAAGTFDS. Scale: log10 of Kd in nM, estimated from mating counts; low values are strong binders. Averages over replicates are reported, and they cover detected replicates only. "nd" marks a missing value. The strain was present, yet no cells mated with the target were sequenced in that replicate, which points to weak or no binding. A sequence measured in both rounds can read differently, since the two assays cover different ranges. Of ten entries with the parent sequence, four were seen in most replicates (averages 0.34 to 2.37), three in one and three in none, so single entries are noisy. The authors' rule: three or more of the six replicates give a measured affinity, fewer mean a poor binder. As a blank, each scFv also met three strains without target: over all heavy chain designs, 1% of these pairings were detected, typically at 2.08 and seldom below 0.84. Also given: how often the same scFv was detected with the empty control strains, with their mean in brackets.

| CDR-H1 | CDR-H2 | CDR-H3 | log10 Kd, replicates | log10 Kd (nM), mean | signal with controls |
|---|---|---|---|---|---|
| GFELNEYGIS | VIYSDGRRTFYGDSVK | GRTAGTFDA | -1.53 / nd / -0.87 / nd / -0.79 / 0.53 | -0.67 | 0 of 18 |
| GFTLNSYGIS | VIYSDGRRTFYGDDVK | GEAAGTFDN | 0.59 / nd / 1.00 / nd / nd / 1.30 | 0.96 | 0 of 18 |
| GFNLNSYGIS | VIYSDGRRTFYGDDVK | GRTAGTFDS | 0.71 / 0.59 / 0.90 / 0.16 / 0.40 / 0.71 | 0.58 | 0 of 18 |
| GFELNSYGIS | VIYADGRRTFYGDSVK | GQTAGTFDS | -0.25 / -0.38 / -0.82 / 0.28 / 0.01 / 0.74 | -0.07 | 0 of 18 |
| GFTLNSYGIS | VIYADGRRTFYGDSVK | GKTAGTFDT | -0.05 / -0.40 / -0.32 / -0.18 / -0.44 / -0.18 | -0.26 | 1 of 18 (1.99) |
| GFSLNEYGIS | VIYSDGRRTFYGDSVK | GRTAGKFDS | nd / nd / nd / nd / nd / nd | nd | 0 of 18 |
| GFDLNSYGIS | VIYSDGRRTFYKDSVK | GRLAGTFDS | 0.56 / 0.70 / 0.77 / 0.81 / 0.80 / 0.44 | 0.68 | 0 of 18 |
| GFNLNSYGIS | VIYSDGRRTFYADKVK | GRNAGTFDS | 0.96 / 1.36 / 0.79 / -0.03 / -0.03 / 1.23 | 0.71 | 0 of 18 |
| GFDLNSYGIS | VIYSDGRRTFYGDSVK | GQTAGTFDG | 0.45 / 0.24 / 0.37 / 0.15 / 0.23 / 0.58 | 0.34 | 0 of 18 |
| GFHLNSYGIS | VIYSDGRRTFYADSVK | GWTAGTFDS | 0.28 / 0.08 / 0.45 / 0.15 / 0.32 / 0.57 | 0.31 | 0 of 18 |
| SFDLNSYGIS | VIYSDGRRTAYGDSVK | GRAAGTFDS | 0.67 / 0.24 / 0.82 / 0.97 / 1.20 / 1.24 | 0.86 | 0 of 18 |
| GFSLNSYGIS | VIYSDGRRTFYADDVK | GQAAGTFDK | -0.31 / -0.17 / 0.10 / -0.31 / 0.10 / -0.05 | -0.11 | 0 of 18 |
| GFDLNSYGIS | VIYSDGRRTFYHDSVK | GKAAGTFDS | 0.61 / 0.23 / 0.15 / -0.19 / 0.70 / 0.38 | 0.31 | 1 of 18 (2.12) |
| HFSLNSYGIS | VIYSDGRRTFYIDSVK | GNAAGTFDS | nd / 1.26 / 2.30 / 1.99 / 2.81 / nd | 2.09 | 0 of 18 |
| GFDLNSYGIS | VIYSDGQRTFYGDSVK | GQAAGTFDS | 0.07 / -0.12 / 0.09 / -0.23 / -0.14 / 0.06 | -0.04 | 1 of 18 (1.87) |
| GFDLNSYGIS | VIYSDGWRTFYVDSVK | GRTAGTFDS | 1.28 / 1.79 / 0.98 / nd / 1.14 / 1.58 | 1.36 | 0 of 18 |
| GFDLNSYGIS | VIYSDGRRTFYQDSVK | GRTAGTFDD | 0.95 / 1.68 / 0.28 / 1.58 / 0.11 / nd | 0.92 | 0 of 18 |
| GFDLNCYGIS | VIYSDGRRTFYGDSVK | GEAAGTFDS | 1.20 / 1.77 / 1.75 / 1.56 / 0.27 / 1.23 | 1.30 | 0 of 18 |
| GFQLNEYGIS | VIYSDGRRTFYGDSVK | GEAAGTFDK | 1.66 / 2.47 / 1.43 / 1.60 / 0.83 / 1.88 | 1.65 | 1 of 18 (2.35) |
| GFQLNEYGIS | VIYSDGRRTFYGDRVK | GRTAGTFDS | nd / 1.21 / 0.23 / nd / nd / 1.36 | 0.93 | 0 of 18 |
| GFSLNSYGIS | VIYADGRRTFYGDSVK | GEAAGTFDA | -0.32 / -0.49 / -0.50 / -0.55 / -0.59 / -0.37 | -0.47 | 0 of 18 |
| GFALNEYGIS | VIYSDGRRTFYHDSVK | GRTAGTFDS | -0.22 / -0.16 / 0.16 / -0.15 / -0.40 / 0.28 | -0.08 | 1 of 18 (1.09) |
| GFSLNEYGIS | VIYSDGRRTFYGDSVK | GHAAGTFDT | nd / nd / nd / 1.26 / nd / nd | 1.26 | 0 of 18 |
| GFDLNMYGIS | VIYSDGRRTFYHDSVK | GRTAGTFDS | nd / nd / nd / nd / nd / nd | nd | 0 of 18 |
| GFTLNSYGIS | VIYSDGKRTFYSDSVK | GREAGTFDT | -0.08 / -0.08 / -0.28 / 0.09 / -0.49 / -0.18 | -0.17 | 1 of 18 (4.10) |
| GFELNSYGIS | VIYADGRRTFYGDSVK | GRIAGTFDS | -0.84 / 0.12 / -0.06 / -0.40 / -0.43 / 0.16 | -0.24 | 0 of 18 |
| GFTLESYGIS | VIYADGRRTFYGDSVK | GRAAGTFDT | 0.18 / 0.48 / 0.53 / 0.93 / 0.09 / 0.67 | 0.48 | 1 of 18 (2.09) |
| GFQLNEYGIS | VIYSDGRRTFYGDQVK | GKTAGTFDS | 0.15 / 0.24 / 0.14 / -0.10 / 0.87 / 0.51 | 0.30 | 1 of 18 (1.80) |
| GFQLNEYGIS | VIYSDGRRTFYQDSVK | GRTAGTFDS | -0.06 / 0.08 / -0.07 / 0.08 / -0.35 / -0.02 | -0.06 | 0 of 18 |
| KFTLNSYGIS | VIYADGRRTFYGDSVK | GRTAGTFDS | 0.18 / nd / 0.22 / nd / -0.25 / 1.30 | 0.36 | 0 of 18 |
| GFQLNEYGIS | VIYSDGRRTFYGDSVK | GEAAGTFDS | 0.63 / 0.20 / 1.35 / 1.01 / 1.48 / 1.00 | 0.95 | 0 of 18 |
| GFDLNSYGIS | VIYSDGRRTFYGDSVK | GREAGSFDT | 0.73 / 1.20 / 1.07 / 0.49 / 0.58 / 0.69 | 0.79 | 2 of 18 (2.32) |
| YFELNSYGIS | VIYADGRRTFYGDSVK | GEAAGTFDS | nd / 1.11 / 0.77 / 2.19 / 2.37 / 1.49 | 1.58 | 0 of 18 |

The last 2 entries again:

CDR-H1,CDR-H2,CDR-H3,"log10 Kd, replicates","log10 Kd (nM), mean",signal with controls
GFDLNSYGIS,VIYSDGRRTFYGDSVK,GREAGSFDT,0.73 / 1.20 / 1.07 / 0.49 / 0.58 / 0.69,0.79,2 of 18 (2.32)
YFELNSYGIS,VIYADGRRTFYGDSVK,GEAAGTFDS,nd / 1.11 / 0.77 / 2.19 / 2.37 / 1.49,1.58,0 of 18

Data: MIT Lincoln Laboratory AlphaSeq set, Li et al. 2023, doi:10.1038/s41467-023-39022-2, as distributed in FLAb.